# AlphaSeq binding of Ab-14 light chain variants to a spike HR2 peptide

Target: peptide PDVDLGDISGINAS, taken from heptad repeat 2 (HR2) of SARS-CoV-2 spike.

Parent scFv Ab-14: VH joined to VL by three GGGGS repeats. Changes lie in the light chain CDRs alone.
VH: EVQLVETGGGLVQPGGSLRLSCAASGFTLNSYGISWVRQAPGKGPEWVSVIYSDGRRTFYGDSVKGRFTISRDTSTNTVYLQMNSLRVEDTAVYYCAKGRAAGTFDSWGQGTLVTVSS
VL: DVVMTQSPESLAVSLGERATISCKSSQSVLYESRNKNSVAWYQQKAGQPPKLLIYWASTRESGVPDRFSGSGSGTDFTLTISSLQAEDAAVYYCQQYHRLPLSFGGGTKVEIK

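Phage display of a naive human antibody library on the peptide gave the parent. Variants in AAYL50 differ from the parent at up to three CDR positions; double and triple changes were sampled at random. AlphaSeq pools MATa yeast showing the antibodies with MATalpha yeast showing the peptide. Pairs that bind mate more often; barcode pairs of the diploids are counted by sequencing. Each replicate has its own calibration line, from reference interactions of the BCL2 family. There are three technical replicates.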

Each variant is given by its three light chain CDRs, as the data file delimits them; those of the parent are KSSQSVLYESRNKNSVA, WASTRES, QQYHRLPLS. Scale: log10 of Kd in nM, estimated from mating counts; low values are strong binders. A mean of the replicates is given; it leaves out those without a signal. A pair that was not seen in that replicate is written "nd"; this usually means weak binding, but a binder can also be missed. As a blank, each scFv also met three strains without target: over library AAYL50, 18% of these pairings were detected, typically at 4.19 and seldom below 2.99. The control count says in how many pairings with the empty strains this scFv gave a signal, with their mean in brackets.

| CDR-L1 | CDR-L2 | CDR-L3 | log10 Kd, replicates | mean, log10 nM | empty controls |
|---|---|---|---|---|---|
| KSSQSVLYESRNKNIVA | WASTREE | QQYHRPPLS | nd nd nd | nd | 0 of 9 |
| KSSQIVLYESRNKNYVA | WASTRES | QQYHRLELS | nd nd nd | nd | 5 of 9 (3.91) |
| KSSQSVLYESRNKNSPA | WASTNEL | QQYHRLPLS | nd nd nd | nd | 0 of 9 |
| KSSQSVQYESRNINSVA | WASARES | QQYHRLPLS | 1.75 1.79 1.75 | 1.76 | 6 of 9 (5.06) |
| KSSQSVLYESRNKNSVA | WASTRVS | QIYHRLNLS | nd 3.00 4.87 | 3.94 | 4 of 9 (4.50) |
| KSSQSVLYESRKKNSVA | WASTRES | QQYHVLQLS | 4.66 4.03 nd | 4.34 | 5 of 9 (4.57) |
| KSSQSVLYESRNKNSVA | WAGTDES | QQYHRLPLS | nd nd nd | nd | 4 of 9 (3.86) |
| NSSQSVLYTSRCKNSVA | WASTRES | QQYHRLPLS | 2.27 2.76 nd | 2.52 | 3 of 9 (3.61) |
| KSSESVLYEKRNKNSVA | WASTRES | TQYHRLPLS | nd nd nd | nd | 1 of 9 (4.97) |
| KESQSVLYESRNKNSVA | WASTRES | QQYRRLPLS | 1.53 1.70 1.50 | 1.58 | 2 of 9 (4.87) |
| KFSQSVLYESRNFNSVA | WASTRES | QQYHRLPLS | 0.45 0.76 0.66 | 0.62 | 6 of 9 (4.73) |
| KSCKSVLYESRNKNSVA | WASTRES | QQYHRSPLS | 3.72 2.61 3.26 | 3.20 | 1 of 9 (3.19) |
| KSSQSGLYESRNKNSVA | WASTRES | QLVHRLPLS | 3.39 2.45 2.94 | 2.93 | 8 of 9 (4.74) |
| KSSQSVDYESRWKNSVA | WASTRED | QQYHRLPLS | 0.92 0.89 1.03 | 0.94 | 0 of 9 |
| TSSQSVLYESRNRNSVA | WASTRES | QQYHRLPYS | 2.59 4.19 2.81 | 3.20 | 3 of 9 (3.98) |
| KSSRSVLYESRNKNSVA | WASTRWS | QQYHRLPGS | nd 4.03 nd | 4.03 | 3 of 9 (4.11) |
| KPSQSVLYESRNKNSVA | WASTRES | GQYHRLPLS | 2.61 2.50 2.87 | 2.66 | 0 of 9 |
| KSSQSVLYESRNKNSVA | WPSTRES | QQYSRWPLS | nd nd nd | nd | 1 of 9 (3.78) |
| KSSQSVLWESRNKNSVA | WPSTRES | QQYHRLGLS | nd nd nd | nd | 0 of 9 |
| HSSQSVLYESRMKNSVA | WACTRES | QQYHRLPLS | 2.43 2.78 2.46 | 2.56 | 6 of 9 (4.11) |
| KSSQIVLYESRNKFSPA | WASTRES | QQYHRLPLS | nd nd 4.44 | 4.44 | 1 of 9 (5.18) |
| KSSQSVLYESRNKNSVA | WASTGES | DQYMRLPLS | 6.11 nd 4.38 | 5.24 | 3 of 9 (3.85) |
| KRSQRVLYEWRNKNSVA | WASTRES | QQYHRLPLS | 0.42 0.63 0.47 | 0.51 | 3 of 9 (4.00) |
| KSSQSVLYESRNKNSVA | WASTRED | QQYFRLPLH | 0.63 0.87 0.88 | 0.79 | 1 of 9 (5.84) |
| KSSQSVLYESRNKNSFR | WASTREG | QQYHRLPLS | 1.47 1.56 1.59 | 1.54 | 4 of 9 (4.91) |
| KSSQYVLYESRNKNSVA | YASTRES | QQYQRLPLS | 0.38 0.64 0.59 | 0.54 | 1 of 9 (4.51) |
| KSSQSQLYESMNKNSVA | WATTRES | QQYHRLPLS | 0.10 0.45 0.18 | 0.25 | 2 of 9 (4.35) |
| KSQQSVLYESRNKNSVA | WASQRES | QDYHRLPLS | 0.39 0.66 0.65 | 0.57 | 0 of 9 |
| KSSQHVLYESRNQNSVA | WASTREN | QQYHRLPLS | nd nd nd | nd | 0 of 9 |
| LSSQSVLYEVRNKNSVA | WASTRES | TQYHRLPLS | nd nd nd | nd | 1 of 9 (4.00) |
| KSSQSVLYESYIKNSDA | WASTRES | QQYHRLPLS | nd 3.80 nd | 3.80 | 6 of 9 (4.34) |
| KSSQSVLAESRNKNIVA | WASTRES | QQYHRLPLS | nd 3.22 nd | 3.22 | 0 of 9 |
| KSSQSVLYESRNKNSVA | WISRRES | QQYHRLPLM | 4.35 3.93 nd | 4.14 | 0 of 9 |
| KSSQIVLYESRNKNSVA | WASTRES | QQGHRLPLH | nd 3.38 4.52 | 3.95 | 2 of 9 (3.98) |
| FSVQSVLYESRNKNSVA | WMSTRES | QQYHRLPLS | nd nd nd | nd | 1 of 9 (3.67) |
| KSSQSVLYESRNKNSPA | WHSTRES | QQYHRLPLS | nd nd nd | nd | 4 of 9 (3.84) |
| KSSQSVLYLSRNKNSEA | MASTRES | QQYHRLPLS | nd nd nd | nd | 0 of 9 |
| KSSQSVLYESRNKNSVA | ARSTRIS | QQYHRLPLS | 0.31 0.69 0.49 | 0.49 | 2 of 9 (4.90) |
| KSSQSVLYESRNKNSVA | WASMRES | QQYHRLPLS | 1.03 1.31 nd | 1.17 | 0 of 9 |
| KSSQSVLYEFRNKNSVA | WASFRES | QQYHRLPLS | nd nd nd | nd | 0 of 9 |
| KSSESVLYEGRNKNSWA | WASTRES | QQYHRLPLS | 4.72 nd nd | 4.72 | 3 of 9 (4.05) |
| KSSQSVLYESRNKNLVA | WANTRNS | QQYHRLPLS | nd nd nd | nd | 0 of 9 |
| KSSQLVLYESRNKNSVA | WAETRES | QNYHRLPLS | 6.20 nd nd | 6.20 | 2 of 9 (4.63) |
| NSSQSYLYESRNKNSVA | WASPRES | QQYHRLPLS | nd 2.83 nd | 2.83 | 2 of 9 (3.58) |

From the list, the first 5 with no signal in any replicate:

| CDR-L1 | CDR-L2 | CDR-L3 | log10 Kd, replicates | mean, log10 nM | empty controls |
|---|---|---|---|---|---|
| KSSQSVLYESRNKNIVA | WASTREE | QQYHRPPLS | nd nd nd | nd | 0 of 9 |
| KSSQIVLYESRNKNYVA | WASTRES | QQYHRLELS | nd nd nd | nd | 5 of 9 (3.91) |
| KSSQSVLYESRNKNSPA | WASTNEL | QQYHRLPLS | nd nd nd | nd | 0 of 9 |
| KSSQSVLYESRNKNSVA | WAGTDES | QQYHRLPLS | nd nd nd | nd | 4 of 9 (3.86) |
| KSSESVLYEKRNKNSVA | WASTRES | TQYHRLPLS | nd nd nd | nd | 1 of 9 (4.97) |

In this assay the parent's reference entry averaged 0.65; its copy inside this library read 1.68.

From the AlphaSeq antibody data of Engelhart et al. 2022 (doi:10.1038/s41597-022-01779-4), copy in the FLAb collection.